Reference: patent publication US10034922B2, “Peptide having angiogenesis inhibitory activity and composition containing same” (GemVax & KAEL Co., Ltd., priority 2013, dated 2018)

Legend:
[1] = tested on: HSP90; assay: HSP90 protein level by flow cytometry; format: cell-based, human; details: MCF7 cells
Description: MCF7 cells were treated by the PEP1 or the control group. For the proteasome inhibition test, during the incubation, the cells were treated by the 5 μM proteasome inhibitor MG132 (Calboicam). By using the trypsin, the cells were separated and rinsed by the cold PBS (phosphate buffered saline) and the FACS buffer (PBS containing 1% BSA and 0.1% NaN3). For the intracellular staining, the cells were treated by the permeabilization buffer (eBioscience, CA, USA) following the instruction of the manufacturer. The cells were reacted with α-HSP70-FITC (ab61907, Abcam) or α-HSP90-PE (ab65171, Abcam) at the 4° C. for 30 minutes. By using FACScan flow cytometer (Becton Dickinson Co., CA, USA), the flow cytometry analysis was done. The data were analyzed by using Flowjo™ software (version 10.0.5, Tree Star, Inc., OR, USA).

[2] = tested on: HSP90; assay: Secreted HSP90 level in blood of tumor-bearing mice (ELISA); format: in vivo, mouse; details: serum of MC38 tumor mice, PEP1 50 μg/kg
Description: 7 week-old BALB/c athymic mice (Nu/Nu) (10 mice per group; n=20, female, Orient Bio Co. Gyunggido, Korea) were divided into two groups randomly after the subcutaneous injection of murine colon carcinoma MC38 (5×10^5 cells/ml in 200 μl PBS per site). PEP1 (50 μg/kg in 100 μl 0.9% NaCl solution) or PBS were injected into the mice once per 2 days. When the size of tumor reaches 10 mm, the PEP1 and PBS were injected to the inside of tumor. The size of tumor was measured in once per 2 days, and the volume of tumor was calculated following equation; volume (mm3)=((width2×length)/2). All experiments were approved by the Institute for Experimental Animals (College of Medicine, Seoul National University at Seoul, Korea). VEGF secretion in cancer cells was confirmed by ELISA (Enzyme-linked immunosorbent assay). MCF7 and HeLa cells were incubated in the hypoxia circumstance or the normoxia circumstance after adding PEP1 or vehicle during 24 hours. The amount of VEGF in the cell supernant was confirmed by human VEGF immune analysis kit (R&D Systems, USA) following the instruction of the manufacturer. For analyzing the concentration of HSP70 and HSP90 in blood, the blood was collected from the mouse model having tumor. […]

[3] = tested on: MC38 tumor; assay: Histological test of tumor (H&E staining); format: in vivo; details: PEP1 treated mouse
Description: FIGS. 22 to 24 represent the results of histological test of the PEP1 administered mouse tumor. The tumor cells collected from the mouse model having tumor treated by PEP1 or vehicle were prepared for immunohistochemistry. In the experiment of FIG. 22, the paraffin fixed sections were stained by H&E staining, and observed by a microscope. In the experiment of FIG. 23, the apoptosis was analyzed by TUNEL assay with the sections. The experiment of the FIG. 24, the proliferating cells were analyzed by immunohistochemistry with PCNA (proliferating cell nuclear antigen) antibodies. The 10 fields were selected randomly from 6 slides of each treatment group, for the quantification, were analyzed by Leica Qwin software.
For evaluating the apoptosis of tumor, by using formalin-fixed and Paraffin-embedded tumor sections, the DNA fragmentation was analyzed by Tunnel assay. According to the manufacturer's instruction, the tumor section was stained by the apoptosis detection kit (ApopTag Peroxidase In Situ, Millipore). The proliferating cells in tumor were detected by using PCNA (Proliferating cell nuclear antigen). […] And then, the field was randomly selected from the 6 slides of each treatment groups, and the field was analyzed by Leica Qwin software for quantification.

[4] = tested on: Human umbilical vein endothelial cell; assay: Endothelial tube formation stimulated by EGM-2 media; format: cell-based; details: PEP1 0.05, 0.5, 5 μM, EGM-2 media stimulation
Description: On the 24-well plate coated by 200 μl of Matrigrl® basement membrane matrix (10.4 mg/mL, BD Biosciences) for 30 minutes at 37° C., the vascular endothelial cells were plated and serum-starved in the basic EBM-2 media for 2 hours. The change of the tube formation was observed by Olympus CKX41 inverted microscope (CAchN 10/0.25 php objective, Olympus Optical Co., Tokyo, Japan) and ToupTek Toupview software (version x86, 3.5.563, Hangzhou ToupTek Photonics Co., Zhejiang, P. R. China) (FIG. 2a).

[5] = tested on: Human umbilical vein endothelial cell induced by VEGF-A; assay: Vascular endothelial cell proliferation by VEGF-A; format: cell-based; details: PEP1 0.05, 0.5, 5 μM, VEGF-A 10 ng/mL, 24 hours
Description: The vascular endothelial cells were plated to a 6-well plate (BD Biosciences, Bedford, Mass., USA) of the 1×10^5 cells/well. The cells were synchronized to the G1/G0 phase by the basic EBM-2 media (Lonza) which has no serum and angiogenesis factors, treated by the PEP1 at each concentration (0.05, 0.5, 5 μM) and stimulated by the VEGF-A (10 ng/mL) for 24 hours, in order to observe the cell proliferation inhibition effect.
For detecting the cell proliferation, by using the trypan blue staining solution (Invitrogen, Carlsbad, Calif., USA), the cells were directly counted in the microscope (×100), and the cell viability was analyzed by using viability assay kit (Merck Millipore Inc.) with Muse™ analyzer.

SMILES: CC[C@H](C)[C@H](NC(=O)[C@H](Cc1ccccc1)NC(=O)[C@H](CCCNC(=N)N)NC(=O)[C@H](CC(C)C)NC(=O)[C@H](CCCNC(=N)N)NC(=O)[C@H](CO)NC(=O)[C@@H](NC(=O)[C@H](CC(C)C)NC(=O)[C@H](CC(C)C)NC(=O)[C@H](C)NC(=O)[C@@H]1CCCN1C(=O)[C@H](CCCNC(=N)N)NC(=O)[C@H](C)NC(=O)[C@@H](N)CCC(=O)O)[C@@H](C)O)C(=O)N1CCC[C@H]1C(=O)N[C@@H](CCCCN)C(=O)O [PEP1, EARPALLTSRLRFIPK]
- effect of PEP1 on HSP90 with proteasome inhibitor ([1]; PEP1 with MG132 5 μM): disappeared
- cell surface HSP90, compared with intracellular HSP ([1]; cell surface staining): less affected
- intracellular HSP90 ([1]; intracellular staining): decreases
- secreted HSP90 level in blood vs control group [2]: no changes
- cavities in tumor tissue section vs control group [3]: more cavities
- vascularization in the tumor [3]: less vascularization
- tube formation [4]: in a concentration-dependent way inhibits
- vascular endothelial cell proliferation by VEGF-A [5]: in a concentration dependent way inhibited
